Data from patent publication US20250177359A1, “COMPOUNDS FOR USE IN THE TREATMENT OF CANCER AND INFLAMMATORY CONDITIONS” (priority 2022, published 2025).
Read-outs that look alike come from different tables or passages of the source.

By UniProt entry, the sequences of proteins in these tests, tags left out. Where a name states a change or a piece, a line headed by the entry shows the natural chain unless it says otherwise. Residues count along the entry.
UniProt Q9UKK3: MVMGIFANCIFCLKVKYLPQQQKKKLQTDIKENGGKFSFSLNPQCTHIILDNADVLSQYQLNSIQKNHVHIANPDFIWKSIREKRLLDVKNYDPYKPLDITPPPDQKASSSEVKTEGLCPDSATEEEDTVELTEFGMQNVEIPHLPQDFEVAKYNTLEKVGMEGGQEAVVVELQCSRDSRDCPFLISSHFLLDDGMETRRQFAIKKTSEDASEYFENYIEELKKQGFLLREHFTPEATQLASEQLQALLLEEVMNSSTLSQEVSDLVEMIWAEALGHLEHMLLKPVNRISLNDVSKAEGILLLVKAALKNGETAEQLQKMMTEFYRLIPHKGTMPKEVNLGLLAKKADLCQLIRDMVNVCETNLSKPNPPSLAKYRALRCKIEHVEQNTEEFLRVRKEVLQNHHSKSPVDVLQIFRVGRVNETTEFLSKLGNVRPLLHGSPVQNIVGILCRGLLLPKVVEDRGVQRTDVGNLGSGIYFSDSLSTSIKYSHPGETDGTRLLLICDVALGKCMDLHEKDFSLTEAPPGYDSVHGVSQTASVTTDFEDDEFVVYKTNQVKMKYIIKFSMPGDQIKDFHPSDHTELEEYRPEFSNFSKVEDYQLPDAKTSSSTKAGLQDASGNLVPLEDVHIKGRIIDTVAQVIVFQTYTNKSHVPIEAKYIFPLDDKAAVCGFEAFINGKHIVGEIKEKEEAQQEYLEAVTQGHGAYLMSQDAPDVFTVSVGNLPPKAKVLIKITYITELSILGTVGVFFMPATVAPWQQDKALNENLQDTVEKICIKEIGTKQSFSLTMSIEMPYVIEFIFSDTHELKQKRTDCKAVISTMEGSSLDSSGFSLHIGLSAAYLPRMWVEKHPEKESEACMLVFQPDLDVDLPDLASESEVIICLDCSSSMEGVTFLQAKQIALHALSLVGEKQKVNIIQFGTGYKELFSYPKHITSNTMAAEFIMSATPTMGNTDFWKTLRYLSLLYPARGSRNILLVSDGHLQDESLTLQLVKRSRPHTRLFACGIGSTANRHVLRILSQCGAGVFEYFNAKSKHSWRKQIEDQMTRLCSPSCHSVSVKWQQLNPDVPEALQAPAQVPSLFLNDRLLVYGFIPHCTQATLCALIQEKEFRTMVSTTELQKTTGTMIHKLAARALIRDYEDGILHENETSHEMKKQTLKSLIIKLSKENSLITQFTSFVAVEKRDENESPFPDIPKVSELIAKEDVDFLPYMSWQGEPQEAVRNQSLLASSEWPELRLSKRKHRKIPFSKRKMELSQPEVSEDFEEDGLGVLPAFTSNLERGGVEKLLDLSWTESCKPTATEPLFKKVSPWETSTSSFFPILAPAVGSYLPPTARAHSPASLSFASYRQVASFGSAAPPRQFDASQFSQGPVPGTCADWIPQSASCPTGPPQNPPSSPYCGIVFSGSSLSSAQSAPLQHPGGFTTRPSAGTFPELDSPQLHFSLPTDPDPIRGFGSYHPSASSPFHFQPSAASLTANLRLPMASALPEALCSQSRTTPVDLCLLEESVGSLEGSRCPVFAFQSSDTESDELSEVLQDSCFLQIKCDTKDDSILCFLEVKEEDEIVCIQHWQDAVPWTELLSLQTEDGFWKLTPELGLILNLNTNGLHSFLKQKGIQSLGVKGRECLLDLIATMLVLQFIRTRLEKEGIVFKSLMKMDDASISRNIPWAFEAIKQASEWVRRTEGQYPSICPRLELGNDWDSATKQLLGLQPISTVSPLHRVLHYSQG
UniProt Q9NR21, 116-338: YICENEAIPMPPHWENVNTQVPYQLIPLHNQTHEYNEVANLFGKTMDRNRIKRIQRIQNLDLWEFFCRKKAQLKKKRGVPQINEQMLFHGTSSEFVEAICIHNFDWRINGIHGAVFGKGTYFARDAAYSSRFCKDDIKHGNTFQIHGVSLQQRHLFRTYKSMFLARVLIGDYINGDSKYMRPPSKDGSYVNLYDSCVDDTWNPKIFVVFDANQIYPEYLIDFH
UniProt Q9Y6F1: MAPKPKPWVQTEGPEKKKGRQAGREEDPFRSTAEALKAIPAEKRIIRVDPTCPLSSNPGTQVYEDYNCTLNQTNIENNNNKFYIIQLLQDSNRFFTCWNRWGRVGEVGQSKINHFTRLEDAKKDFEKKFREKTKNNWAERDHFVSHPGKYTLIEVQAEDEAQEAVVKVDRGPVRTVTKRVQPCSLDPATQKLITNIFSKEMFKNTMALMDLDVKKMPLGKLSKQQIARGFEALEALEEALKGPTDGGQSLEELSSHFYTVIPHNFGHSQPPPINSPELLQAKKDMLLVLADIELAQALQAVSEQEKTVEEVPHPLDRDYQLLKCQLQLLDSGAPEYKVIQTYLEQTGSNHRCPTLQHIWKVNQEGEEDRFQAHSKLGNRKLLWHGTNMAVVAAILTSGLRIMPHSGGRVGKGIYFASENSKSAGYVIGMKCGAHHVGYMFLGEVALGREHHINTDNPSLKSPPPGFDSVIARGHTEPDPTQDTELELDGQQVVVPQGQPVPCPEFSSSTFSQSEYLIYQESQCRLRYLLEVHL
UniProt Q460N5, 1535-1801: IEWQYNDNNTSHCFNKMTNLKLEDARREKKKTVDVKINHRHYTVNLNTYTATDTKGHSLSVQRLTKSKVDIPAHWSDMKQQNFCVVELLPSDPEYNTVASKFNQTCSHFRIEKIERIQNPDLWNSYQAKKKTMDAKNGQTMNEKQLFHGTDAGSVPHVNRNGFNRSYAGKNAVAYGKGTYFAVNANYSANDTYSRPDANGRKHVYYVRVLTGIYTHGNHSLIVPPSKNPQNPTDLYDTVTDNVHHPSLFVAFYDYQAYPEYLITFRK
UniProt Q9H0J9, 489-701: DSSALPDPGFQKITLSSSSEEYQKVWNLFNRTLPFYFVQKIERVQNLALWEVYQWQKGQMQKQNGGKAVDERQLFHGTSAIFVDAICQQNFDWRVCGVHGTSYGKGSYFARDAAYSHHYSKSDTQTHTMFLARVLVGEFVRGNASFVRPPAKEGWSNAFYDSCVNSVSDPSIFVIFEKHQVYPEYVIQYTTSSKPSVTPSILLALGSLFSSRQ
UniProt Q7Z3E1, 448-657: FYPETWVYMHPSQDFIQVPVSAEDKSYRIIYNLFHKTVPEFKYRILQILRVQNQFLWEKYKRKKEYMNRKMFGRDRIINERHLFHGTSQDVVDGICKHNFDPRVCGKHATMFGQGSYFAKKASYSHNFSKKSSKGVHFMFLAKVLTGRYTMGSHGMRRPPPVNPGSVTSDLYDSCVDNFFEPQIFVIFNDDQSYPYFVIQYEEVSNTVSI
UniProt P09874, whole entry: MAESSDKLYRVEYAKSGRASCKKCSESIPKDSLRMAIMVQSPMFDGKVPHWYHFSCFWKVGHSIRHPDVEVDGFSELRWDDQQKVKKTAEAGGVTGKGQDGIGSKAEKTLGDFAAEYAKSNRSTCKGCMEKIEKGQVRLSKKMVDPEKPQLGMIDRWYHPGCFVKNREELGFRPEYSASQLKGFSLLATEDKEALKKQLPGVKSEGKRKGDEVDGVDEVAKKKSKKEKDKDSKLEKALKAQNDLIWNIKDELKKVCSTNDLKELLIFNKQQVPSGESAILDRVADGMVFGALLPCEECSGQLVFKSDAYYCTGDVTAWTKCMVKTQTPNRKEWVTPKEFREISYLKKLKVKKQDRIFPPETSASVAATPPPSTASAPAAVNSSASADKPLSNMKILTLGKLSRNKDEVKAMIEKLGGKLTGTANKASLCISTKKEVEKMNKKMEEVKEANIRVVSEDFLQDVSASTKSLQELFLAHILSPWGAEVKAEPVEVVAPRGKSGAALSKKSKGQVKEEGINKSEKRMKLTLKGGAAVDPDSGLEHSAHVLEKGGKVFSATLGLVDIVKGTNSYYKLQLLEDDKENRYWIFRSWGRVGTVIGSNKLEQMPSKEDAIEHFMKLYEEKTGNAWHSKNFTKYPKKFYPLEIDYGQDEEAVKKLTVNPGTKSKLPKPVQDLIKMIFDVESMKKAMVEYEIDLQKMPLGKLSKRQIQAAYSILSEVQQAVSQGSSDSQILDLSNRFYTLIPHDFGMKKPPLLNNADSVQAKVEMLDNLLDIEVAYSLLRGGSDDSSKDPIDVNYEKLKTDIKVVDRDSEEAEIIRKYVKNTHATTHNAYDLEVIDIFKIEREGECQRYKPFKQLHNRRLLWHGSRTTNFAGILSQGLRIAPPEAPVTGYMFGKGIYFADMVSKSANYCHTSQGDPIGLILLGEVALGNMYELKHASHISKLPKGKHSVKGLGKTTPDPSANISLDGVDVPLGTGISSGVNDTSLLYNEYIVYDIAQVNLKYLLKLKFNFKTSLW
UniProt Q9UGN5: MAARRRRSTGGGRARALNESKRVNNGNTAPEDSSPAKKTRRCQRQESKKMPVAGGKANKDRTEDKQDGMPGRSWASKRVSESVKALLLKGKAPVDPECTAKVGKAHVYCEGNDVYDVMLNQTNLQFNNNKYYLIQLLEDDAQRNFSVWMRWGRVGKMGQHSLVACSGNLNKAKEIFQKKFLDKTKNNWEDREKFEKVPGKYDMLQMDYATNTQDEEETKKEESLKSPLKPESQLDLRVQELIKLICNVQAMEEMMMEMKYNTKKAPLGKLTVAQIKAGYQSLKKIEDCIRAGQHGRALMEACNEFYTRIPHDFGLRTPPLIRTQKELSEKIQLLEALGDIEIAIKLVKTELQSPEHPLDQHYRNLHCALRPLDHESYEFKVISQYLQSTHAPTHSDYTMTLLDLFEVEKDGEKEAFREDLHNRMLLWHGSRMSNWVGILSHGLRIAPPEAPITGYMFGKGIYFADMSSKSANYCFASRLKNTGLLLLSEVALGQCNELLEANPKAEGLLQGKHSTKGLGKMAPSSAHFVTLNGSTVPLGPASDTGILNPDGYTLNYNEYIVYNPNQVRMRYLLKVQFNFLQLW

Assays:
PARP4 = PARP4 (Homo sapiens, UniProt Q9UKK3); settings: read-out: PARP4 IC50; Table 4
Protocol: (§1) All starting materials, reagents, and solvents were purchased from common commercial suppliers and were used as such without further purification. […] Organic solutions were dried over anhydrous Na2SO4 and concentrated with rotary evaporator at low pressure. All the reactions were routinely checked by thin-layer chromatography (TLC) on silica gel 60F254 (Merck) and visualized by using UV and iodine. Flash chromatography separations were carried out on Merck silica gel 60 (mesh 230-400) or by using automated Buchi Reveleris X2-UV with column FP Ecoflex Si 12 g. Yields were of purified products and were not optimized. ^1HNMR spectra were recorded at 400 MHz (Bruker Avance DRX-400), while ^13CNMR spectra were recorded at 101 MHz (Bruker Avance DRX-400). Chemical shifts are given in ppm (δ) relative to TMS. […] Mating constant (J) are reported in Hz. The purity of the tested compounds was evaluated by HPLC analysis using Jasco LC-4000 instrument equipped with a UV-Visible Diode Array Jasco-MD4015 (Jasco Corporation, Tokyo, Japan), and XTerra MS C18 column, 5 μm×4.6 mm×150 mm (Waters Corporation, Massachusetts, USA). Chromatograms were analyzed by ChromNAV2.0 Chromatography Data System software. […] The peak retention time (ret. time) is given in minutes. […] 1-Isobutoxy-4-methoxy-2-nitrobenzene (113). Isobutyl alcohol (0.6 mL, 6.43 mmol) was added, under nitrogen atmosphere at 0° C., to a suspension of NaH (0.26 g, 6.43 mmol) in dry DMF. After 15 minutes, 1-fluoro-4-methoxy-2-nitrobenzene 112 (1 g, 5.84 mmol) was also added and the reaction mixture was stirred at 80° C. for 4 h. […] (2-Isobutoxy-5-methoxyphenyl)amine (114). Zn (1.57 g, 24 mmol) and NH4C1 (2.45 g, 40 mmol) were added to a solution of 113 (0.46 g, 2 mmol) in acetone/H2O (50 mL, ratio 5:1). The reaction mixture was stirred at 60° C. for 3 h and, then, it was filtered over celite. […] N-(2,5-diethoxyphenyl)thiourea (55). […] N-(2-isobutoxy-5-methoxyphenyl)thiourea (115). […] A solution of Br2 (0.2 mL, 3.3 mmol) in CHCl3 (5 mL) was slowly added to a suspension of 45 (0.6 g, 3.3 mmol) in CHCl3 (13 mL), at 0° C. The reaction mixture was stirred at r.t. for 4 h and, then, a 10% solution of Na2SO3 in water was added to the mixture. […] 4,7-Diethoxy-1,3-benzothiazol-2-amine (66). […] 4-Isobutoxy-7-methoxy-1,3-benzothiazol-2-amine (116).

PARP15 (481-678) = PARP15 (481-678) (Homo sapiens, UniProt Q460N3); settings: read-out: PARP15 IC50; proximity enhanced assay
Protocol: as §1

PARP11 (116-338) = PARP11 (116-338) (Homo sapiens, UniProt Q9NR21); settings: proximity enhanced assay; for PARP11 pIC50 ± SEM: n = 3; for IC50: read-out: PARP11 IC50
Protocol: as §1

PARP3 = PARP3 (Homo sapiens, UniProt Q9Y6F1); settings: read-out: PARP3 IC50; Table 4
Protocol: as §1

PARP14 (1535-1801) = PARP14 (1535-1801) (Homo sapiens, UniProt Q460N5); settings: read-out: PARP14 IC50; proximity enhanced assay
Protocol: as §1

PARP10 (809-1016) = PARP10 (809-1016) (Homo sapiens, UniProt Q53GL7); settings: read-out: PARP10 IC50; proximity enhanced assay
Protocol: as §1

PARP15 = biological target: T1, PARP15 (Homo sapiens, UniProt Q460N3); test: biochemical
T1 sequence (Q460N3 1-678): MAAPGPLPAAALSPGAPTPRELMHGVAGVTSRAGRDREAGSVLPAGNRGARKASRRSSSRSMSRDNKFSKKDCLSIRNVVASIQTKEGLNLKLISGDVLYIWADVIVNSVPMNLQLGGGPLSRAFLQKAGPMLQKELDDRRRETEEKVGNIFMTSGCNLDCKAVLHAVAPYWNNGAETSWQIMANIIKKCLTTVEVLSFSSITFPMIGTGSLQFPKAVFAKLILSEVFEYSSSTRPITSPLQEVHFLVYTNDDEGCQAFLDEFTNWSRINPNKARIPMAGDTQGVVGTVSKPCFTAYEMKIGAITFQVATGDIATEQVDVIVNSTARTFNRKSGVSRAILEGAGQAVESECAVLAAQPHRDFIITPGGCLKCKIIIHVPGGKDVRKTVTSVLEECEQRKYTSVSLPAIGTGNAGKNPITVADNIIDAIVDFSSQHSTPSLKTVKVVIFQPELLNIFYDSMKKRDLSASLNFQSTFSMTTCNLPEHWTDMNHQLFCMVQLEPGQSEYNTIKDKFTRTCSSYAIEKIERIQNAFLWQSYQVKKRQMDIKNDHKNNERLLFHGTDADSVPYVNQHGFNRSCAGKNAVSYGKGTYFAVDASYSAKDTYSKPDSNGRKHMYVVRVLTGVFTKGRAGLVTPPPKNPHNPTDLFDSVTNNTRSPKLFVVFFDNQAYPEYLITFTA
Protocol: as §1

PARP12 (489-701) = PARP12 (489-701) (Homo sapiens, UniProt Q9H0J9); test: biochemical
Protocol: as §1

PARP7 (residues 448-657) = PARP7 (residues 448-657) (Homo sapiens, UniProt Q7Z3E1); test: biochemical
Protocol: as §1

PARP10 = biological target: T2, PARP10 (Homo sapiens, UniProt Q53GL7); test: Activity assay measuring NAD+ consumption, PARP10 (Tables 1-3); format: biochemical
T2 construct: made in house
T2 sequence (Q53GL7 1-1025): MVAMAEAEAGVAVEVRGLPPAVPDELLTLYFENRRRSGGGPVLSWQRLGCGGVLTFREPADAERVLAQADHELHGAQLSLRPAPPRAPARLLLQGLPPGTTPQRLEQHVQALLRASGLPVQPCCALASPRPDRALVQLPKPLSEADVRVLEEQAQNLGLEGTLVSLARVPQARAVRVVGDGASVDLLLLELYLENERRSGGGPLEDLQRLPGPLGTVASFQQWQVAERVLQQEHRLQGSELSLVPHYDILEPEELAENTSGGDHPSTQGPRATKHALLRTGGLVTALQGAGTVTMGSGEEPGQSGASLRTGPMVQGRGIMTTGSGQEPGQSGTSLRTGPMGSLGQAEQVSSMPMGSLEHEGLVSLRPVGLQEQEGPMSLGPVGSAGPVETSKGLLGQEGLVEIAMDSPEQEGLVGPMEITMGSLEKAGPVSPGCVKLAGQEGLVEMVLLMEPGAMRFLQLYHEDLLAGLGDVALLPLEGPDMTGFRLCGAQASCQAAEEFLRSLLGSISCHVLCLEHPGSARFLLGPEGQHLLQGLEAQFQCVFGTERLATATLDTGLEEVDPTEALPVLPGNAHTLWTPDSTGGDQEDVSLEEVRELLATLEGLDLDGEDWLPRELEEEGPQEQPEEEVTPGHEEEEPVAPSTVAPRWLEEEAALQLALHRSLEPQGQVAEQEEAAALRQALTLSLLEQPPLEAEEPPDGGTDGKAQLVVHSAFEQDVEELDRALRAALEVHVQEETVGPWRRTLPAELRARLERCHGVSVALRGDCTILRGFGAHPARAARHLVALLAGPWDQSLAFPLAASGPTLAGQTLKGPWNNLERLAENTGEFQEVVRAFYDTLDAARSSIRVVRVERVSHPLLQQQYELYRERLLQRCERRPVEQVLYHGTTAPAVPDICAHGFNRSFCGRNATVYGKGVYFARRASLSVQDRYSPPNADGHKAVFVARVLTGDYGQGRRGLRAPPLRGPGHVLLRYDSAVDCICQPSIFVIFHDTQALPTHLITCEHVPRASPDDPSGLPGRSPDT

PARP1 = PARP1 (Homo sapiens, UniProt P09874); settings: for IC50: read-out: PARP1 IC50, Table 4
Protocol: as §1

PARP2 = biological target: T3, PARP2 (Homo sapiens, UniProt Q9UGN5); format: biochemical
T3 construct: made in house
Protocol: as §1

TNKS2 = biological target: T4, TNKS2 (Homo sapiens, UniProt Q9H2K2); settings: read-out: TNKS2 IC50; NAD+ consumption assay; > less than 50% inhibition at highest concentration, >> no inhibition
T4 sequence (Q9H2K2 1-1166): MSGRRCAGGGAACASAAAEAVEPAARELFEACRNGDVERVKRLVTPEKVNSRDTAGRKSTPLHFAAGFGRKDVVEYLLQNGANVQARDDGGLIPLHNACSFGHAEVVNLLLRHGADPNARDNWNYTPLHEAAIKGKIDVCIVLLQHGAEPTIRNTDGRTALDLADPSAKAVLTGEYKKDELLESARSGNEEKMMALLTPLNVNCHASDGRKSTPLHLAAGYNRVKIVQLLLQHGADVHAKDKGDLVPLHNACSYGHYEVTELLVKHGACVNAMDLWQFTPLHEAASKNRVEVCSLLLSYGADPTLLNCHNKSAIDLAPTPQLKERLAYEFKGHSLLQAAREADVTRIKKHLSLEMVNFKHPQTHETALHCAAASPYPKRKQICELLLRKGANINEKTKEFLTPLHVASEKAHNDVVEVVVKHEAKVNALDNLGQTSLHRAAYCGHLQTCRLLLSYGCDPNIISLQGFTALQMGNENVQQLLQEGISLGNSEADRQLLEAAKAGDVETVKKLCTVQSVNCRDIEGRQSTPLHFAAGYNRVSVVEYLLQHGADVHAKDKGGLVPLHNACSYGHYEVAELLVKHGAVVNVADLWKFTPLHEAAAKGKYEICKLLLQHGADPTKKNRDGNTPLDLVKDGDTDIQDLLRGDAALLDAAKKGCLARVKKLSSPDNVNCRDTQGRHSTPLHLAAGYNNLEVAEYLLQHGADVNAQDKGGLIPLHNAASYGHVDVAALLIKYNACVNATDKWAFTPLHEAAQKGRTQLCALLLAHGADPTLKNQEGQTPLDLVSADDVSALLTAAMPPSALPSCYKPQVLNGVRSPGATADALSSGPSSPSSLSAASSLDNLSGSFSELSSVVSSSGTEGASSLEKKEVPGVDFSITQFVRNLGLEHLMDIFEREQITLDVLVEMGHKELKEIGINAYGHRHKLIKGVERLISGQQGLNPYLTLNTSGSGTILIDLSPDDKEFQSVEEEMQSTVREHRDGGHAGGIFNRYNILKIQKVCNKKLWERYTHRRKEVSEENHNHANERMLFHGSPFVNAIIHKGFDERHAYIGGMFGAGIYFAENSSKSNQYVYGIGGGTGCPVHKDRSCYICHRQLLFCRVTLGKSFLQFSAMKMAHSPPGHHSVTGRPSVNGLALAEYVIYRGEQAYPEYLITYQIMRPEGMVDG
Protocol: as §1

[1] = read-out: PARP15 IC50, Tables 1-3 assay
[2] = PARP10 IC50, Tables 1-3 assay, > less than 50% inhibition, >> no inhibition at reported concentration, * value limited by protein concentration
[3] = Tables 1-3 assay, read-out: PARP10 IC50
[4] = proximity enhanced assay, n = 3

| Compound | IC50 (PARP4) [µM] | IC50 (PARP15 (481-678)) [µM] | PARP11 pIC50 ± SEM (PARP11 (116-338)) | IC50 (PARP3) [µM] | IC50 (PARP14 (1535-1801)) [µM] | IC50 (PARP10 (809-1016)) [µM] | PARP15 pIC50 ± SEM (PARP15; Tables 1-3 assay) | IC50 (PARP15; [1]) [µM] | IC50 (PARP10; [2]) [µM] | PARP10 pIC50 ± SEM (PARP10; Tables 1-3 assay) | IC50 (PARP10; [3]) [µM] | IC50 (PARP11 (116-338)) [µM] | IC50 (PARP1) [µM] | IC50 (PARP15) [µM] | other results |
| --- | --- | --- | --- | --- | --- | --- | --- | --- | --- | --- | --- | --- | --- | --- | --- |
| Cc1ccc2c(c1)sc1nnc(N)n12 [Compound 22, 7-Methyl[1,2,4]triazolo[3,4-b][1,3]benzothiazol-3-amine] | 10 | 0.26 | (6.33 ± 0.13) | 34 | 0.65 | 0.025 | (6.53 ± 0.14) | 0.3 | ≤ 0.18 | (6.73 ± 0.12) | 0.18 |  |  |  | IC50 (PARP12 (489-701); read-out: PARP12 IC50, proximity enhanced assay, > less than 50% inhibition at highest concentration): 4.4 µM; IC50 (PARP7 (residues 448-657); read-out: PARP7 IC50, proximity enhanced assay, >> no inhibition at reported concentration): 3.8 µM |
| Oc1ccc2c(c1)sc1nncn12 [Compound 10] | 6 | 2 |  | 8.8 | 6.7 | 2.9 |  |  | > 10 |  |  | 9.4 | 0.57 | > 10 | PARP1 pIC50 ± SEM (PARP1; n = 3): (6.25 ± 0.02); IC50 (PARP12 (489-701)): > 10 µM; IC50 (PARP7 (residues 448-657)): > 10 µM; selectivity for PARP2 over TNKS2 (PARP2; IC50 of […] nM versus 370 nM): ten-fold; selectivity towards PARP2 over PARP1 (PARP2; Table 4 values): 13 fold; selectivity towards PARP2 over tankyrases (PARP2; Table 4 values): 8 fold |
| COc1ccc(OC)c2c1SC1=NNC(NC(=O)c3ccc(Cl)cc3)N12 (stereo not drawn) [Compound 29, 4-Chloro-N-(5,8-dimethoxy-2,3-dihydro[1,2,4]triazolo[3,4-b][1,3]benzothiazol-3-yl)benzamide] |  |  |  |  |  |  |  |  |  |  |  |  |  |  | IC50 (TNKS2): 20 µM; IC50 (PARP2; NAD+ consumption assay, > less than 50% inhibition at highest concentration, >> no inhibition): 44 µM |
| COc1ccc(OC)c2c1sc1nnc(N)n12 [Compound 28, 5,8-Dimethoxy[1,2,4]triazolo[3,4-b][1,3]benzothiazol-3-amine] | 11 | 0.056 | (6.61 ± 0.07) | 50 | 0.3 |  | (6.91 ± 0.03) | 0.12 | ≤ 0.12 | (6.93 ± 0.06) | 0.12 | 0.24 | 15 | ≤ 0.12 | PARP12 pIC50 ± SEM (PARP12 (489-701); [4]): (6.80 ± 0.002); PARP7 pIC50 ± SEM (PARP7 (residues 448-657); [4]): (7.08 ± 0.06) |
